{"sequences": {"note": "Amino acid sequences for entries named in this document (tags omitted). Residues count along the entry.", "UniProt Q03405, 23-305 limits assumed": "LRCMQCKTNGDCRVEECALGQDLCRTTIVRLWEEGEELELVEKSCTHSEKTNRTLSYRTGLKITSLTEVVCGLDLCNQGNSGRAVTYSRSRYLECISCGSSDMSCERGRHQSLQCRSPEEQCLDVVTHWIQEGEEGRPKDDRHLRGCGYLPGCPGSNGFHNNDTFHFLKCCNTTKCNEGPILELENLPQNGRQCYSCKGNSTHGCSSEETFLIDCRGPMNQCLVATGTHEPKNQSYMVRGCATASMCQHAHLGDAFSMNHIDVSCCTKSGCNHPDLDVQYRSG"}, "source": "patent US10633374B2", "about": "“Small molecule based antibody-recruiting compounds for cancer treatment” (YALE UNIVERSITY, priority 2015, dated 2020)", "target": "immobilized uPAR (Homo sapiens, UniProt Q03405)", "assay": "Direct ELISA binding assay on immobilized uPAR", "conditions": "tested form: ammonium formate salt", "protocol": "Selected ARM-U2 derivatives were assayed for their ability to bind recombinant uPAR using a fluorescence quenching assay. The compounds stored at −20° C. as DMSO stocks were diluted into PBS aliquots at a fixed 50 nM concentration. Increasing concentrations of recombinant uPAR were mixed with each compound containing aliquot and the fluorescence of the solution measured following 1 h equilibration times. […] To confirm that the observation of uPAR dependent fluorescence quenching was indeed due to specific binding to uPAR and to validate ARM-U2 binding to uPAR specifically via the uPA binding site, a direct binding ELISA assay was developed. In this assay, clear 96-well high-binding plates from CoStar, were loaded with 100 μl/well of 50 nM recombinant uPAR 807-UK-100-CF from R&D systems prepared from a 100 μg/ml (approx. 2.1 μM) stock of uPAR in PBS and left overnight at room temperature to equilibrate. Following equilibration, the plate was washed with wash buffer 1× (400 μl/well of 0.05% Tween/PBS), blotted dry and blocked for 1 hr with 300 ul/well of 2% BSA/PBS. Following blocking, the plate was washed with 400 ul of the wash buffer and blotted dry. […] The absorbance at 450 nm was measured using an in-house Perkin-Elmer fluorescence plate reader.", "data": [{"compound": "O=C1c2ccccc2-c2onc3c(N4CCC[C@H](C(=O)NCCCOCCOCCOCCCNc5ccc([N+](=O)[O-])cc5[N+](=O)[O-])C4)cc(Nc4ccc(S(=O)(=O)O)cc4S(=O)(=O)O)c1c23", "values": [{"measurement": "binding to immobilized uPAR vs parent derivative", "setting": "direct ELISA", "result": "much higher affinity than parent derivative 1-ABT-1"}, {"measurement": "binding to immobilized uPAR after exogenous uPA-ATF", "setting": "plus 100 nM uPA-ATF", "result": "displacement of 6-ABT-1 from uPAR"}]}]}
